According to patent publication US9655965B2, “Radiosensitizer compounds for use in combination with radiation” (priority 2013, dated 2017):
Entries after “also recorded” stand apart in the source; their conditions may differ.

Assays:
[1] = system: human normal cells (GM05757); test: In vitro radiation-induced toxicity in human normal cells, MTT assay 12 days after X-ray; type: cell-based; conditions: GM05757, 12-hr treatment, then 0-10 Gy 225 keV X-ray, MTT at 12 days
Source text: (§1) Cisplatin, dichloro-diamino-benzene (Compound A), bromo-diamino-benzene (Compound D), insulin, and 3-(4,5-Dimethylthiazol-2-yl)-2,5-diphenyltetrazolium bromide (MTT) were obtained from Sigma-Aldrich. Dibromo-diamino-benzene (Dibromo-phenylenediamine, Compound B) was obtained from TCI-America. Diiodo-diaminobenzene (Compound C) were synthesized, purified and crystallized in our laboratory, and the structures and purity were examined by NMR and mass spectrometry. MEM and fetal bovine serum (FBS), penicillin G and streptomycin were obtained from Hyclone Laboratories (UT, USA). Stock solution of cisplatin was freshly prepared in ultrapure water or saline, and stock solutions of Compounds A, B, C, D were prepared in pure ethanol, where the final concentration of ethanol was ≦1% when treated to cells.
(§2) A human skin diploid fibroblast (GM05757 cell line) was obtained from the Coriell Cell Repository directly. Fetal bovine serum (FBS) was obtained from Hyclone Laboratories (UT, USA). […]
(§3) The radiosensitizing effects of RSCs on cell viability were determined by the 3-[4,5-dimethylthiazol-2-yl]-2,5-diphenyl tetrazoliumbromide (MTT) assay. […] The surviving fraction was determined by measuring the absorbance at 540 nm (570 nm for SDS solubilization) using a Multiskan Spectrum UV/Vis microplate reader (Thermo Scientific), which is directly proportional to the number of viable cells.

[2] = system: human normal cells (GM05757); test: In vitro toxicity in human normal cells, 72-hr treatment, MTT assay; type: cell-based; conditions: GM05757, 72-hr treatment, without ionizing radiation, 0-50 μM cisplatin, 0-200 μM compounds
Source text: as §1, §2, §3

Substance: bromo-(1,2-)diamino-benzene [Compound D]
- radiation toxicity in human normal cells [1]: no radiation toxicity
- toxicity toward human normal cells [2]: essentially no toxicity; also recorded: little toxicity up to 200 μM
